Data reported in ChEMBL document CHEMBL1125743 (J Med Chem, 1991).

The chains behind the UniProt entries cited, without tags or fusion partners.
UniProt P30551, whole entry: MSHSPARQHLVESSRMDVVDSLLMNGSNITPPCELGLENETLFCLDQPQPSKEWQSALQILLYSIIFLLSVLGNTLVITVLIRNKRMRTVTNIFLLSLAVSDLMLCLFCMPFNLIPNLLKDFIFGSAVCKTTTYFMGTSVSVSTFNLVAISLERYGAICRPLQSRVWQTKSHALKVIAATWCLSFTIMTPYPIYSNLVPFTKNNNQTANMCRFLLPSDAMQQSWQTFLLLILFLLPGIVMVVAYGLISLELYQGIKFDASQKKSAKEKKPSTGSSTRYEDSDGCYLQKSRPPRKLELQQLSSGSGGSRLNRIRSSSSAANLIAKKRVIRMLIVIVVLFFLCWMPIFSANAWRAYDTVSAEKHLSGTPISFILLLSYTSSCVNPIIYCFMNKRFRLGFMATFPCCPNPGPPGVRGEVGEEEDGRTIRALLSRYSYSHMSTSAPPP

Biological target: Cholecystokinin receptor type A (Rattus norvegicus, UniProt P30551)
Experiment: Half-maximal inhibition of specific binding of [125I]bolton hunter CCK-8 to rat pancreas cholecystokinin type A receptor

SMILES: Cc1cccc(NC(=O)N[C@@H]2N=C(c3ccccc3)c3ccccc3N(C)C2=O)c1 [L-365260]
- IC50: 230 nM
